Patent publication US10786505B2, “Administration of NEDD8-activating enzyme inhibitor and chemotherapeutic agents” (Millennium Pharmaceuticals, Inc., priority 2013, dated 2020)

Test system: EPLC-272H
Assay: In vitro cell viability combination assay (CellTiter-Glo)
Format: cell-based
Settings: agent combined with MLN4924, vehicle PBS, 72 hr

## N.N.O=C([O-])C1(C(=O)[O-])CCC1.[Pt+2] [carboplatin]
  Combination Index: 1.62 ± 0.03
  Nonlinear Blending: −37 ± 2
